Our source for the s* of the sedimentation peak of the MLL1 core complex (holocomplex, no peptide), s* value of the complex formed and Kd values is patent publication US20130203167A1.

Experiment [1] concerns the target WDR5-RbBP5-Ash2L subcomplex (UniProt P61964). The experiment can be described thus: sedimentation velocity of the assembled MLL1 core complex (MLL1 with the WDR5-RbBP5-Ash2L subcomplex), without competitor peptide; reference for the shift to 4.6 s* with the Win peptide.
Experiment [2] deals with full-length WDR5 (UniProt P61964). In words: sedimentation velocity, 1:1 stoichiometric ratio.
Experiment [3] has the same target. The experiment can be described thus: sedimentation velocity analytical ultracentrifugation, in solution; sedimentation velocity AUC, MLL1 construct, not the peptide.

One may read the Kd as the free concentration of one partner at which half of the binding sites on the other are occupied at equilibrium, for simple one-to-one binding. The low end stands for higher affinity, the high end for lower affinity.

Regarding “MLL^3745, polypeptide construct consisting of residues 3745-3969 of human MLL1 (SEQ ID NO. 26) (from UniProt Q03164 3745-3969) (enzyme; other documents disagree on this pair)”, in experiment [1], the s* of the sedimentation peak of the MLL1 core complex (holocomplex, no peptide) is 5 s. Moreover, the s* value of the complex formed with full-length WDR5 [2] came to 2.87 s. The substance also had a Kd with full-length WDR5 [3] of 0.12 µM.
